## Measured affinities in a library of Ab-14 light chain variants

The target is the same throughout: PDVDLGDISGINAS, from the HR2 region of SARS-CoV-2 spike.

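The parent was found by panning a naive human phage display library on the peptide. Library AAYL50 holds single substitutions and randomly drawn double and triple substitutions in the CDRs. In AlphaSeq, yeast of one mating type display the scFv and yeast of the other type display the target. After mating in shaken culture at 30 °C for 16 h, diploids were selected and their barcode pairs sequenced. The ratio of observed to expected reads was calibrated, replicate by replicate, on BCL2-family standards whose Kd was known from biolayer interferometry. The assay was run in three technical replicates.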

The variants keep the heavy chain, the linker and the frameworks of Ab-14 (scFv order VH, a (GGGGS)3 linker, VL).
VH: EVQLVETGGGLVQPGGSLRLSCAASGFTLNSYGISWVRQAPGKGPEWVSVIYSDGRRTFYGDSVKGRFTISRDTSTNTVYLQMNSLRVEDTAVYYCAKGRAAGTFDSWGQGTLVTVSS
VL: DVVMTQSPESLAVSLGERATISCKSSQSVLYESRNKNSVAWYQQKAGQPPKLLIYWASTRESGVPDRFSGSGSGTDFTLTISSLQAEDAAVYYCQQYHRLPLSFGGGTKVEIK

Changes read parent residue, position, new residue, counted from the first residue of the VL shown. Affinities are written as log10 Kd with Kd in nM; a lower number is a better binder. Replicates are averaged; those with no signal do not enter the mean. Where no diploid with the target was found in that replicate, the entry reads "n.d.": below detection, most likely a poor binder, though not proof of it. Parent in this assay: reference entry 0.65, copy in this library 1.68. As a blank, each scFv also met three strains without target: over library AAYL50, 18% of these pairings were detected, typically at 4.19 and seldom below 2.99. Also given: how often the same scFv was detected with the empty control strains, with their mean in brackets.

| # | changes | log10 Kd (nM) by replicate | log10 Kd (nM), mean | empty controls |
|---|---|---|---|---|
| 1 | S28K+V29A+L30T | 1.15 1.27 1.25 | 1.22 | 2/9 (4.11) |
| 2 | Y31N+S58V | 1.22 1.20 1.11 | 1.18 | 0/9 |
| 3 | K24V+E32Y+L100E | n.d. n.d. n.d. | n.d. | 2/9 (4.49) |
| 4 | L30A+A40P+R99F | n.d. n.d. n.d. | n.d. | 3/9 (2.78) |
| 5 | S38N+S58D+Y97C | 3.74 3.69 4.98 | 4.14 | 3/9 (3.37) |
| 6 | E61A | 0.89 1.04 0.98 | 0.97 | 5/9 (4.04) |
| 7 | A40P+W56S+L100M | n.d. 3.78 n.d. | 3.78 | 0/9 |
| 8 | Q27S+L100K+S103P | n.d. n.d. n.d. | n.d. | 1/9 (4.13) |
| 9 | S33R+K36W+E61Y | 2.18 1.42 1.41 | 1.67 | 0/9 |
| 10 | S28T+N37G | n.d. n.d. n.d. | n.d. | 0/9 |
| 11 | T59V+P101H | n.d. n.d. n.d. | n.d. | 1/9 (4.26) |
| 12 | R34C+S58N+S103I | 3.84 3.99 n.d. | 3.92 | 0/9 |
| 13 | S28Y+R34V+Q95N | 1.22 1.46 1.15 | 1.28 | 1/9 (3.79) |
| 14 | N37S+A57P+E61W | 5.73 4.24 n.d. | 4.98 | 4/9 (4.71) |
| 15 | K24T+Q96V+L100M | n.d. n.d. n.d. | n.d. | 0/9 |
| 16 | A57C+S58M | n.d. n.d. n.d. | n.d. | 0/9 |
| 17 | S28L+V29Q+R99P | n.d. n.d. n.d. | n.d. | 2/9 (3.70) |
| 18 | S26I+S33G+L100W | n.d. n.d. n.d. | n.d. | 4/9 (4.69) |
| 19 | S28N+Y31K+Q96P | 0.64 1.02 0.80 | 0.82 | 0/9 |
| 20 | L30T+R34I+S103I | 1.31 1.40 1.34 | 1.35 | 1/9 (5.62) |
| 21 | S33T+N35L+R60D | n.d. n.d. n.d. | n.d. | 1/9 (3.85) |
| 22 | L30Y+S62Y+S103M | 1.00 1.12 1.15 | 1.09 | 0/9 |
| 23 | N35R+W56E | 1.72 1.42 1.49 | 1.54 | 4/9 (4.42) |
| 24 | L30E+S33Q+N35A | 0.75 0.93 0.84 | 0.84 | 4/9 (4.70) |
| 25 | Q27W+T59E+S103W | 2.72 2.52 2.93 | 2.72 | 0/9 |
| 26 | K24S+N37G+T59F | n.d. n.d. n.d. | n.d. | 1/9 (4.79) |
| 27 | N35Y+W56G+A57V | -0.01 0.31 0.03 | 0.11 | 1/9 (3.62) |
| 28 | L30K+A57P | n.d. n.d. n.d. | n.d. | 0/9 |
| 29 | S33E+P101S | n.d. 2.98 3.07 | 3.03 | 0/9 |
| 30 | V29C+L102E+S103K | n.d. n.d. 5.01 | 5.01 | 2/9 (3.97) |
| 31 | K24I+S26Y+N35T | n.d. n.d. n.d. | n.d. | 1/9 (4.40) |
| 32 | K24D+K36E+Q95M | n.d. n.d. n.d. | n.d. | 1/9 (2.99) |
| 33 | L30T+Q96S+H98R | 4.97 n.d. 4.09 | 4.53 | 4/9 (4.01) |

Repeated from above, the 2 best binders with a signal in all replicates:

| changes | log10 Kd (nM) by replicate | log10 Kd (nM), mean | empty controls |
|---|---|---|---|
| N35Y+W56G+A57V | -0.01 0.31 0.03 | 0.11 | 1/9 (3.62) |
| S28N+Y31K+Q96P | 0.64 1.02 0.80 | 0.82 | 0/9 |

From the AlphaSeq antibody data of Engelhart et al. 2022 (doi:10.1038/s41597-022-01779-4), copy in the FLAb collection.